Legend:
[1] = Lifetime / decomposition of synthesized peroxynitric acid depending on temperature; assay type: physicochemical; conditions: rate doubles per 5 degrees rise
Source text: The synthesis reaction of peroxynitric acid progresses also at a room temperature. To be specific, peroxynitric acid is synthesized at a room temperature; however, the lifetime of the synthesized peroxynitric acid depends on temperature. Where being saved at a room temperature, the synthesized peroxynitric acid is quickly decomposed to turn into nitric acid in a short time. When the temperature rises by 5 degrees, the rate of decomposition doubles. For example, the rate of decomposition at a temperature of 20° C. is 16 times as fast as that at a temperature of 0° C. (zero). Thus, the synthesized peroxynitric acid turns into nitric acid solution very quickly at a temperature of 50° C. The half-life of the peroxynitric acid is 10 minutes or so at a room temperature. The half-life of the peroxynitric acid is a few hours (2 to 3 hours or so) at a temperature of 0 (zero) degrees.
In order to preserve the solution with the biocidal activity maintained, it is preferable to set the temperature of the solution as low as possible. For example, the solution is adjusted to have a temperature of 0° C., which enables the solution to be stored/preserved for a couple of hours, for example, for 5 to 8 hours or so. Freezing the solution allow the solution to be preserved for a longer time.

[2] = tested on: living microorganisms; experiment: Expected sterilization effect of undiluted synthesized peroxynitric acid solution; conditions: undiluted solution of the fourth embodiment, 420 mM peroxynitric acid
[3] = tested on: living microorganisms; experiment: Sterilization effect of substances fractionated by ion chromatography at different retention times (FIG. 5); conditions: solution of the fourth embodiment, 0° C., eluant 10 mM HCl pH 2.0

Substance: peroxynitric acid
- rate of decomposition at 20° C. relative to 0° C. [1]: 16 times
- further lowering of the number of living microorganisms [2]: ≥ 3000 orders of magnitude
- sterilization effect of the fractionated substance (LOG CFU trough) [3]: biocidal activity species

Reference: patent US10499648B2, “Sterilization method, formulation for sterilization use, and device for producing sterilizing liquid” (priority 2014, dated 2019)
